This note sets out measurements from ChEMBL document CHEMBL1152171 (Bioorg Med Chem Lett, 2008).

Chains of the proteins cited; added tags and fusions are not shown.
UniProt Q01827, whole entry: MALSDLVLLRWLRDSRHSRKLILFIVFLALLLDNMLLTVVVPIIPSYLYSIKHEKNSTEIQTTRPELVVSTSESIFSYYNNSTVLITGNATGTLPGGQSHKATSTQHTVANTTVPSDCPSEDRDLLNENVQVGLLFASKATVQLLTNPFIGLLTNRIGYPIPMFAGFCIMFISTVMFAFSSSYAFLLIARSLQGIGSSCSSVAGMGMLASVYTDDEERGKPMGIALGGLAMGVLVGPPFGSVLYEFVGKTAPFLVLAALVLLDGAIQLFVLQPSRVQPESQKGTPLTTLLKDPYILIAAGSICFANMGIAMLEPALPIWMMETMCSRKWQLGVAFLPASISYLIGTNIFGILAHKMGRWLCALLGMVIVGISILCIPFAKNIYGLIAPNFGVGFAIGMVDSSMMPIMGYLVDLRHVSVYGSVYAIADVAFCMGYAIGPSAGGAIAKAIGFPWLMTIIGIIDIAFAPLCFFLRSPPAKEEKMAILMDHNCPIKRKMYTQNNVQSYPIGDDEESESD

The target of the test is Synaptic vesicular amine transporter (Rattus norvegicus, UniProt Q01827). The test is described as follows: Displacement of [3H]dihydrotetrabenazine from vesicular monoamine transporter-2 in rat brain synaptosome. In kind it is tissue-based. (Loss of bound radioactivity is the signal in a displacement assay; it reports binding, not function.)

What is called Ki is the equilibrium dissociation constant of an inhibitor or competing ligand from its target. A lower Ki goes with a stronger hold on the target. In turn, `CN1[C@@H](CCc2ccccc2)CCC[C@H]1c1ccccc1` displayed a Ki of 16.1 µM.
